Measurements as given in ChEMBL document CHEMBL6120995, “Orvinol-based opioid receptor antagonist fluorinated at C(20)-pharmacophore” (2025).

Tested on: Mus musculus
Assay: Effect on tail-flick latency in male Swiss mouse administered subcutaneously and measured after 30 mins
Conditions: route sc

Q: C=CCN1CC[C@]23c4c5ccc(O)c4O[C@H]2[C@@]2(O)CC[C@@]3(C[C@@H]2[C@](C)(O)C(F)(F)F)[C@H]1C5 was tested. Which Activity did it give?
A: The Activity was “inactive”.

The source made the active and inactive calls. The rule behind the calls is not given here.
